In patent publication US12583836B2 (Anaxis Pharma Pty Ltd, priority 2020, dated 2026) one finds Kd data, which are given here for 22 compounds.

Sequences of proteins named here, by UniProt entry; tags and fusion partners are left off. A change or cut given only in a name is not applied to a line headed by its entry.
UniProt Q9Y572: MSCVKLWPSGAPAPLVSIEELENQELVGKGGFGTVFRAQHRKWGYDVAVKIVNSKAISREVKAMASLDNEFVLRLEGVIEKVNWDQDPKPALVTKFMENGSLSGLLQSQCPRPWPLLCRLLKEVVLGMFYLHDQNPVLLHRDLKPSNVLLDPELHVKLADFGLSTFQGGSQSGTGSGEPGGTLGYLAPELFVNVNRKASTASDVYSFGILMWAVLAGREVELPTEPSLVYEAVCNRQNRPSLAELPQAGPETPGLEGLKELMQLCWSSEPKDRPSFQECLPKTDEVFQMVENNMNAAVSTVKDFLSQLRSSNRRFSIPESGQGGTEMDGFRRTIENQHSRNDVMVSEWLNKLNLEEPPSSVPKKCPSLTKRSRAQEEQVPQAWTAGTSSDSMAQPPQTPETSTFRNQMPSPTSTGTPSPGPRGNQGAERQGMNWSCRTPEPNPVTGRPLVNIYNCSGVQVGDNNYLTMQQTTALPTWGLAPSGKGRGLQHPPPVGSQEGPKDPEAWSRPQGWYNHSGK

What all share (settings): equilibrium dissociation constant, class symbols
Experiment [1] deals with T1, MLKL (full length) (Homo sapiens, UniProt Q8NB16).
T1 construct: purchased DiscoverX (KINOMEscan service); host or cells: E. coli BL21-derived (T7 phage) or HEK293
T1 sequence (Q8NB16 1-471): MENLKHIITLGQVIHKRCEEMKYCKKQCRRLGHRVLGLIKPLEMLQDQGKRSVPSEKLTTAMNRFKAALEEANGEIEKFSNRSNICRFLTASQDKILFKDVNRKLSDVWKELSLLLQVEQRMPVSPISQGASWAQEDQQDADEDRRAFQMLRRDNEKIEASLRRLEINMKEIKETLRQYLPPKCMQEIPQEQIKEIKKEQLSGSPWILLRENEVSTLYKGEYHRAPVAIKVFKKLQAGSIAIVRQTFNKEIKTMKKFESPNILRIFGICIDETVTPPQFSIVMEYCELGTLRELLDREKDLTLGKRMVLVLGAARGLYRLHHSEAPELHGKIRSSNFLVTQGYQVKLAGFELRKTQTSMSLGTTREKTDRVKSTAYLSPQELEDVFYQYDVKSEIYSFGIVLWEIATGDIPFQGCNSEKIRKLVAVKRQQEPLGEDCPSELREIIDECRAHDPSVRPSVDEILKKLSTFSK
Kind of experiment: KINOMEscan binding assay, MLKL.

The target in experiment [2] is T2, RIP1 (Homo sapiens, UniProt Q13546).
T2 construct: purchased DiscoverX (KINOMEscan service); host or cells: E. coli BL21-derived (T7 phage) or HEK293
T2 sequence (Q13546 1-671): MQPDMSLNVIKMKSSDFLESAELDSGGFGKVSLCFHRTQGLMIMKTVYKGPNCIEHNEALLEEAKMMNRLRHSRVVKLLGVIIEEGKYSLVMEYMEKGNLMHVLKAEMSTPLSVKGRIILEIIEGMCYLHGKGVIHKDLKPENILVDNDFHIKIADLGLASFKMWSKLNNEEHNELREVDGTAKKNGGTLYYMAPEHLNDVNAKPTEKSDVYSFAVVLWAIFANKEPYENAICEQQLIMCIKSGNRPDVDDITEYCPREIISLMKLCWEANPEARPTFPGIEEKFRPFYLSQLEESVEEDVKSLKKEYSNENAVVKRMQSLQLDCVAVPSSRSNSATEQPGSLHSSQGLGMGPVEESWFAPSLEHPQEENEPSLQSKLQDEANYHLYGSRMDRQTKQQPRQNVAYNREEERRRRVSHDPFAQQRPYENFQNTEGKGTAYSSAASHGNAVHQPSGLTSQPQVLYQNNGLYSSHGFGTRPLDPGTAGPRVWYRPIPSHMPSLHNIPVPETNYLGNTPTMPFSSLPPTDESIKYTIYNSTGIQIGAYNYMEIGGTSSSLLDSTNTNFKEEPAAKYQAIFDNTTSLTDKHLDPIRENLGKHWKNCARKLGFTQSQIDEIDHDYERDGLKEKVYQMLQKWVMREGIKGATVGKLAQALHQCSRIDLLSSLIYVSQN
Kind of experiment: KINOMEscan binding assay, RIP1.

The target in experiment [3] is T3, RIP3 (Homo sapiens, UniProt Q9Y572).
T3 construct: purchased DiscoverX (KINOMEscan service); host or cells: E. coli BL21-derived (T7 phage) or HEK293
Kind of experiment: KINOMEscan binding assay, RIP3.

One may read the Kd as a measure of binding affinity in units of concentration. Low readings indicate higher affinity, high ones lower affinity. `COc1ccc(S(=O)(=O)Nc2ccc(-c3n[nH]c(Nc4cnccn4)c3C(N)=O)cc2)cc1` [Compound 82, 3-(4-((4-methoxyphenyl)sulfonamido)phenyl)-5-(pyrazin-2-ylamino)-1H-pyrazole-4-carboxamide]: the Kd in experiment [1] was 0.01 to 1 µM; in experiment [2], greater than 30 µM; in experiment [3], greater than 30 µM.
Take `CCS(=O)(=O)Nc1ccc(-c2n[nH]c(Nc3cc(C(F)(F)F)ccn3)c2C(N)=O)cc1` [Compound 85, 3-(4-(ethylsulfonamido)phenyl)-5-((4-(trifluoromethyl)pyridin-2-yl)amino)-1H-pyrazole-4-carboxamide]: the dissociation constant Kd in experiment [1] was 0.01 to 1 µM; in experiment [2], greater than 30 µM; in experiment [3] it was 1 to 30 µM.
On to `CCS(=O)(=O)Nc1ccc(-c2n[nH]c(Nc3cc4ccccc4cn3)c2C(N)=O)cc1` [Compound 87, 3-(4-(ethylsulfonamido)phenyl)-5-(isoquinolin-3-ylamino)-1H-pyrazole-4-carboxamide], for which the Kd is less than 0.01 µM in experiment [1], greater than 30 µM in experiment [2] and greater than 30 µM in experiment [3].
Consider `CCS(=O)(=O)Nc1ccc(-c2n[nH]c(Nc3ccc(OC)cn3)c2C(N)=O)cc1` [Compound 88, 3-(4-(ethylsulfonamido)phenyl)-5-((5-methoxypyridin-2-yl)amino)-1H-pyrazole-4-carboxamide], for which the Kd was less than 0.01 µM in experiment [1], 1 to 30 µM in experiment [2] and 1 to 30 µM in experiment [3].
`CCS(=O)(=O)Nc1ccc(-c2n[nH]c(Nc3cccc(C)n3)c2C(N)=O)cc1` [Compound 94, 3-(4-(ethylsulfonamido)phenyl)-5-((6-methylpyridin-2-yl)amino)-1H-pyrazole-4-carboxamide]: the Kd in experiment [1] was 0.01 to 1 µM; in experiment [2], greater than 30 µM; in experiment [3] it was 1 to 30 µM.
For `CCS(=O)(=O)Nc1ccc(-c2n[nH]c(Nc3cc(OC)ccn3)c2C(N)=O)cc1` [Compound 95, 3-(4-(ethylsulfonamido)phenyl)-5-((4-methoxypyridin-2-yl)amino)-1H-pyrazole-4-carboxamide], the Kd in experiment [1] is 0.01 to 1 µM; in experiment [2], greater than 30 µM; in experiment [3], 1 to 30 µM.
`CCCS(=O)(=O)Nc1ccc(-c2n[nH]c(Nc3cnccn3)c2C(N)=O)cc1` [Compound 97, 3-(4-(propylsulfonamido)phenyl)-5-(pyrazin-2-ylamino)-1H-pyrazole-4-carboxamide]: the dissociation constant (Kd) was 0.01 to 1 µM in experiment [1], greater than 30 µM in experiment [2] and greater than 30 µM in experiment [3].
`CCS(=O)(=O)Nc1ccc(-c2n[nH]c(Nc3cccc(OC(F)(F)F)n3)c2C(N)=O)cc1` [Compound 103, 3-(4-(ethylsulfonamido)phenyl)-5-((6-(trifluoromethoxy)pyridin-2-yl)amino)-1H-pyrazole-4-carboxamide]: the Kd in experiment [1] was less than 0.01 µM; in experiment [2] it was greater than 30 µM; in experiment [3], 1 to 30 µM.
Turning to `CCS(=O)(=O)Nc1ccc(-c2n[nH]c(Nc3ccnc(OCC(F)F)c3)c2C(N)=O)cc1` [Compound 106, 5-((2-(2,2-difluoroethoxy)pyridin-4-yl)amino)-3-(4-(ethylsulfonamido)phenyl)-1H-pyrazole-4-carboxamide], the Kd in experiment [1] is less than 0.01 µM; in experiment [2], greater than 30 µM; in experiment [3], greater than 30 µM.
Regarding `COCCOc1cc(Nc2[nH]nc(-c3ccc(NS(=O)(=O)CC#N)cc3)c2C(N)=O)ccn1` [Compound 110, 3-(4-((cyanomethyl)sulfonamido)phenyl)-5-((2-(2-methoxyethoxy)pyridin-4-yl)amino)-1H-pyrazole-4-carboxamide], the Kd is less than 0.01 µM in experiment [1], greater than 30 µM in experiment [2] and greater than 30 µM in experiment [3].
As to `CCS(=O)(=O)Nc1ccc(-c2n[nH]c(Nc3cc(C)nc(C)c3)c2C(N)=O)cc1` [Compound 112, 5-((2,6-dimethylpyridin-4-yl)amino)-3-(4-(ethylsulfonamido)phenyl)-1H-pyrazole-4-carboxamide], the dissociation constant (Kd) in experiment [1] is less than 0.01 µM; in experiment [2], greater than 30 µM; in experiment [3], greater than 30 µM.
For `CCS(=O)(=O)Nc1ccc(-c2n[nH]c(Nc3cc(OC)ncc3C)c2C(N)=O)cc1` [Compound 118, 3-(4-(ethylsulfonamido)phenyl)-5-((2-methoxy-5-methylpyridin-4-yl)amino)-1H-pyrazole-4-carboxamide], the Kd in experiment [1] is 0.01 to 1 µM; in experiment [2], greater than 30 µM; in experiment [3], greater than 30 µM.
For the compound `CCS(=O)(=O)Nc1ccc(-c2n[nH]c(Nc3ccnc(OC)c3)c2C(N)=O)cc1` [Compound 121, 3-(4-(ethylsulfonamido)phenyl)-5-((2-methoxypyridin-4-yl)amino)-1H-pyrazole-4-carboxamide], the Kd in experiment [1] is less than 0.01 µM; in experiment [2] it was 1 to 30 µM; in experiment [3], 1 to 30 µM.
In the case of `CCS(=O)(=O)Nc1ccc(-c2n[nH]c(Nc3cccc(C(F)(F)F)n3)c2C(N)=O)cc1` [Compound 126, 3-(4-(ethylsulfonamido)phenyl)-5-((6-(trifluoromethyl)pyridin-2-yl)amino)-1H-pyrazole-4-carboxamide], the Kd in experiment [1] is less than 0.01 µM; in experiment [2] it was greater than 30 µM; in experiment [3] it was greater than 30 µM.
As to `CCS(=O)(=O)Nc1ccc(-c2n[nH]c(Nc3ccccn3)c2C(N)=O)cc1` [Compound 131, 3-(4-(ethylsulfonamido)phenyl)-5-(pyridin-2-ylamino)-1H-pyrazole-4-carboxamide], the Kd was less than 0.01 µM in experiment [1], greater than 30 µM in experiment [2] and 1 to 30 µM in experiment [3].
The corresponding values for `NC(=O)c1c(-c2ccc(NS(=O)(=O)CC3CCC3)cc2)n[nH]c1Nc1ccccn1` [Compound 134] are 1 to 30 µM, greater than 30 µM and 1 to 30 µM.
The corresponding values for `CCS(=O)(=O)Nc1ccc(-c2n[nH]c(Nc3cccc(C(F)(F)F)n3)c2C(N)=O)c(OCc2ccc(F)cc2)c1` [Compound 141, 3-(4-(ethylsulfonamido)-2-((4-fluorobenzyl)oxy)phenyl)-5-((6-(trifluoromethyl)pyridine-2-yl)amino)-1H-pyrazole-4-carboxamide] are 1 to 30 µM, greater than 30 µM and greater than 30 µM.
For `NC(=O)c1c(-c2ccc(NS(=O)(=O)C(F)F)c(Oc3ccc(F)cc3)c2)n[nH]c1Nc1cccc(C(F)(F)F)n1` [Compound 147, 3-(4-((difluoromethyl)sulfonamido)-3-(4-fluorophenoxy)phenyl)-5-((6-(trifluoromethyl)pyridine-2-yl)amino)-1H-pyrazole-4-carboxamide], in that order: less than 0.01 µM, greater than 30 µM and greater than 30 µM.
As to `NC(=O)c1c(-c2ccc(NS(=O)(=O)C(F)F)c(OCc3ccc(F)c(F)c3)c2)n[nH]c1Nc1cccc(C(F)(F)F)n1` [Compound 151, 3-(3-((3,4-difluorobenzyl)oxy)-4-((difluoromethyl)sulfonamido)phenyl)-5-((6-(trifluoromethyl)pyridine-2-yl)amino)-1H-pyrazole-4-carboxamide], the values for the Kd in experiment [1], in experiment [2] and in experiment [3] were less than 0.01 µM, greater than 30 µM and greater than 30 µM, respectively.
`C[C@H](Oc1cc(-c2n[nH]c(Nc3ccccn3)c2C(N)=O)ccc1NS(=O)(=O)CC(F)(F)F)c1ccc(F)cc1` [Compound 154, (S)-3-(3-(1-(4-fluorophenyl)ethoxy)-4-((2,2,2-trifluoroethyl)sulfonamido)phenyl)-5-(pyridine-2-ylamino)-1H-pyrazole-4-carboxamide]: the Kd in experiment [1] is less than 0.01 µM; in experiment [2], greater than 30 µM; in experiment [3], greater than 30 µM.
For `Cc1cnc(Nc2[nH]nc(-c3ccc(NS(=O)(=O)CC(F)(F)F)c(OCc4ccc(F)c(Cl)c4)c3)c2C(N)=O)cn1` [Compound 155, 3-(3-((3-chloro-4-fluorobenzyl)oxy)-4-((2,2,2-trifluoroethyl)sulfonamido)phenyl)-5-((5-methylpyrazin-2-yl)amino)-1H-pyrazole-4-carboxamide], the Kd in experiment [1] is less than 0.01 µM; in experiment [2], greater than 30 µM; in experiment [3], greater than 30 µM.
`CCS(=O)(=O)Nc1ccc(-c2n[nH]c(Nc3cnccn3)c2C(N)=O)cc1OCc1ccc(F)cn1` [Compound 156, 3-(4-(ethylsulfonamido)-3-((5-fluoropyridin-2-yl)methoxy)phenyl)-5-(pyrazin-2-ylamino)-1H-pyrazole-4-carboxamide]: the figures for the dissociation constant Kd in experiment [1], in experiment [2] and in experiment [3] were less than 0.01 µM, greater than 30 µM and greater than 30 µM, respectively.
